By IC50 is commonly meant the concentration that inhibits the measured activity by half.

Chains of the proteins cited; added tags and fusions are not shown.
UniProt Q8NER1, whole entry: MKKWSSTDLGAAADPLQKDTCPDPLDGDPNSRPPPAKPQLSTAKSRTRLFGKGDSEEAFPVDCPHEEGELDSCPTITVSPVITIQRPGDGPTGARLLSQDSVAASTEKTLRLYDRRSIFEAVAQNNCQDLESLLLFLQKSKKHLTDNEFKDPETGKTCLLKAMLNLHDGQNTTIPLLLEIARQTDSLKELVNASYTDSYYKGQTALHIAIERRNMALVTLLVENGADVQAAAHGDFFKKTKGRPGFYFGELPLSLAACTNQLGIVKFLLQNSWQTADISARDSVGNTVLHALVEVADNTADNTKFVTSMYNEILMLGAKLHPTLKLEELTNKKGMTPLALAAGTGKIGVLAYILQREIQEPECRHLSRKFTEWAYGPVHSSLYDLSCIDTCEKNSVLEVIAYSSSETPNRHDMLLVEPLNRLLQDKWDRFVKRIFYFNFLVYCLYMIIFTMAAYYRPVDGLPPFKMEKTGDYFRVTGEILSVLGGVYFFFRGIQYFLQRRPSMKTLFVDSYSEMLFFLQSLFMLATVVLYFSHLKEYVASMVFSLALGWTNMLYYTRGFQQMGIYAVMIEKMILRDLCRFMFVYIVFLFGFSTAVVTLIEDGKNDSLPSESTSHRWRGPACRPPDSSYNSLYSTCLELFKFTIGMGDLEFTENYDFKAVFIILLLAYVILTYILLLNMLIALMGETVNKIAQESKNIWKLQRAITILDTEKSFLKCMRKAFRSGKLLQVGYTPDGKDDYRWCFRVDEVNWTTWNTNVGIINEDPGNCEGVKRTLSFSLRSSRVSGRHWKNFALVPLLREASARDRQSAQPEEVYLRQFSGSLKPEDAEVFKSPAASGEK

One compound from ChEMBL document CHEMBL1144293, “4-(2-Pyridyl)piperazine-1-benzimidazoles as potent TRPV1 antagonists” (Bioorg Med Chem Lett, 2005) can be followed below.

Assay [1] has as its target T1, Transient receptor potential cation channel subfamily V member 1 (Homo sapiens, UniProt Q8NER1). Briefly: Antagonist activity in capsaicin-induced FLIPR assays in HEK293 cells expressing human TRPV1. It is filed as functional, cell-based. The method in brief: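 HEK293 cells stably expressing human TRPV1; channel activated with 100 nM capsaicin and block of the calcium influx read on a fluorometric imaging plate reader (FLIPR). IC50 given as mean ± SEM of at least three determinations.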

Assay [2] deals with T1, Transient receptor potential cation channel subfamily V member 1. Briefly: Antagonist activity in pH 5.5-induced FLIPR assays in HEK293 cells expressing human TRPV1. It is filed as functional, cell-based. The method in brief:
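Human TRPV1-expressing HEK293 line stimulated by low pH (pH 5.5) as agonist; antagonism measured as inhibition of calcium influx by FLIPR. IC50 reported as mean ± SEM from at least three determinations.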

For the compound `Cc1cc2nc(N3CCN(c4ncccc4Cl)CC3)[nH]c2cc1C`, the IC50 in assay [1] was 726 nM; in assay [2], above 25000 nM.
